In publication PMC4216219 (Journal of Medicinal Chemistry, 2014):

Legend:
[1] = test system: J774A.1 (mouse macrophage cell line); settings: presence vs absence of folinic acid
[2] = Tolerated dose determination in uninfected mice; type: in vivo; settings: 30 mg/kg ip for 5 consecutive days, uninfected BALB/c mice

| Compound | effect of folinic acid on activity, J774A.1 [1] | tolerability [2] |
| --- | --- | --- |
| c1ccc(CNc2nc(NCc3ccccc3)c3ccccc3n2)cc1 [Compound 10, N^2,N^4-Dibenzylquinazoline-2,4-diamine] | no antagonism | – |
| CNc1nc(NCc2ccccc2)c2ccccc2n1 [Compound 12, N^4-Benzyl-N^2-methylquinazoline-2,4-diamine] | no antagonism | – |
| CCCCNc1nc(NCc2ccccc2)c2ccccc2n1 [Compound 13, N^4-Benzyl-N^2-butylquinazoline-2,4-diamine] | no antagonism | – |
| CNc1nc(NCc2ccccc2)nc2ccccc12 [Compound 15, N^2-Benzyl-N^4-methylquinazoline-2,4-diamine] | no antagonism | well tolerated |
| CCCCNc1nc(NCc2ccccc2)nc2ccccc12 [Compound 16, N^2-Benzyl-N^4-butylquinazoline-2,4-diamine] | no antagonism | slowed breathing |
| Cc1ccc2c(NCc3ccco3)nc(NC(C)C)nc2c1 [Compound 23, N^4-(Furan-2-ylmethyl)-N^2-isopropyl-7-methylquinazoline-2,4-diamine] | no antagonism | hypoactivity |
| CN(Cc1cnc2nc(N)nc(N)c2n1)c1ccc(C(=O)N[C@@H](CCC(=O)O)C(=O)O)cc1 [methotrexate, reference compound] | antagonized significantly | – |
| CCc1nc(N)nc(N)c1-c1ccc(Cl)cc1 [pyrimethamine, reference compound] | antagonized significantly | – |
